For the assay, the target named is EGF receptor tyrosine kinase (Homo sapiens, UniProt P00533). Nature of the assay: Effect of inhibitors on EGF receptor tyrosine kinase labeling by ANBP (5) in A431 plasma membranes. It counts as binding. To be noted: inhibitor 5 μM, 5 minutes pretreatment, then AX0231 20 μM for 60 minutes. Here is the method:
Plasma membranes containing the epidermal growth factor receptor (EGFR) were prepared from the A431 human epidermoid cancer cell line. Approximately 1×10^8 A431 cells were resuspended in 10 mls 20 mM HEPES, pH 7.5, 0.14M NaCl, 5 mM KCl, 0.1 mM EDTA, 0.1% glucose, and 0.035% sodium bicarbonate. The cells were lysed by Dounce homogenization, and the lysate was diluted into 80 mls of 20 mM sodium borate, pH 10.2, 0.1 mM EDTA. This mixture was placed on a rocker at 4° C. for 10 minutes, and the membranes from the mixture were isolated by centrifugation at 16,000 rpm for 30 minutes in a Beckman JA17 rotor. The plasma membranes were further purified by centrifugation over a 40%/30% sucrose cushion at 30000 rpm for 60 minutes in a Beckman MLS 50 swinging bucket rotor. The plasma membranes were collected at the aqueous—sucrose interface, and solubilized in buffer containing 20 mM HEPES, pH 7.5, 50 mM NaCl, 20 mM MgCl2, 0.05 mg/ml BSA, and 0.1% Triton-X-100.
Plasma membranes prepared as described above in Example 15 were treated with the ANBP (5), either alone (control), in the presence of an EGF receptor tyrosine kinase inhibitor (AG1478), or inhibitors that target other kinases (AG825 & AG 925), or ATP, and processed as described. […] The gel was then scanned on a FMBIO2 gel scanner, and the intensity of labeling of the EGFR was quantitated by ImageAnalysis.

In the case of `COc1cc2ncnc(Nc3cccc(Cl)c3)c2cc1OC` [AG1478], the “reduction of probe labeling of EGFR” value came out at 90%.

The values above are taken from patent US20030134303A1, “Adenine nucleotide-binding protein-directed probes, and methods of their synthesis and use” (ActivX Biosciences, Inc,, priority 2001, published 2003).
